Literature values as cited in US20260041695A1, “COMBINATION THERAPIES FOR TREATMENT OF BREAST CANCER” (Genentech, Inc., priority 2019, published 2026).

Sequences of proteins named here, by UniProt entry; tags and fusion partners are left off.
UniProt P03372, whole entry: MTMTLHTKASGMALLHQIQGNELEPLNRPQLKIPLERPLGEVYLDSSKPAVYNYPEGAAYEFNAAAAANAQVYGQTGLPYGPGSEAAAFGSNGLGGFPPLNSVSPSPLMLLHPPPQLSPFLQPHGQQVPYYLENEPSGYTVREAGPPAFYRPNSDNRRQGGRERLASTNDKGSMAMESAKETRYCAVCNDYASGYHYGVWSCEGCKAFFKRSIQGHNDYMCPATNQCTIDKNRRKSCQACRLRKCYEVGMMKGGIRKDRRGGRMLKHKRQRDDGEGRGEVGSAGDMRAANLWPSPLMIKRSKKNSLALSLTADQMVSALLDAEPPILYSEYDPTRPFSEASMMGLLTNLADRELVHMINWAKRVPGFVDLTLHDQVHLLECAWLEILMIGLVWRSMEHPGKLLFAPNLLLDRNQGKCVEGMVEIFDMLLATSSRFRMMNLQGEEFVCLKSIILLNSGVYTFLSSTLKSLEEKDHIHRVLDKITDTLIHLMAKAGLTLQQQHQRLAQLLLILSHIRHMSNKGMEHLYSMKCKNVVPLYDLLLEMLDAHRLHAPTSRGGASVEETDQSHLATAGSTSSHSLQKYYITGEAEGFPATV

Target: ER (Homo sapiens, UniProt P03372)
Settings: greater than tamoxifen; cited from earlier work

C[C@]12CC[C@@H]3c4ccc(O)cc4C[C@@H](CCCCCCCCC[S+]([O-])CCCC(F)(F)C(F)(F)F)[C@H]3[C@@H]1CC[C@@H]2O (stereo partly drawn) [fulvestrant, (7α,17β)-7-{9-[(4,4,5,5,5-pentafluoropentyl)sulfinyl]nonyl}estra-1,3,5(10)-triene-3,17-diol]
affinity for the ER relative to tamoxifen: approximately 100 fold
